# Measured values from US20100056627A1, “PHARMACEUTICAL COMPOSITIONS OF ALKYL GALLATES” (priority 2006, published 2010).
# Columns and labels:
# [1] = system: influenza virus A/Aichi (H3N2); experiment: Virucidal activity against influenza virus A/Aichi (H3N2) (Table 16); conditions: presence of 30 mg/L of J1816
# [2] = system: clinical isolates MRSA and MSSA; experiment: MIC of octyl gallate against clinical isolates MRSA and MSSA, agar plate dilution; conditions: with isoamyl gallate (Table 7)
compound,measurement,setting,value
CCCCCCCCOC(=O)c1cc(O)c(O)c(O)c1 [octyl gallate],octyl gallate concentration at which influenza virus completely lost the infectivity to cells,[1],10 mg/L
same,antimicrobial action of octyl gallate against clinical isolates MRSA and MSSA,[2],reinforced
